A short description of this data set: CER-001 as carrier for ophthalmic drugs: appearance of samples after thermal cycling. The format is physicochemical. To be noted: dexamethasone palmitate 1 mg/ml in PBS; five cycles 37° C. to 55° C.; FIG. 1C. Here is the method: A solution of CER-001 was mixed with azithromycin to provide a final azithromycin concentration of 10 mg/ml and subjected to five heating and cooling cycles from 37° C. to 55° C. to promote complexation of azithromycin to CER-001. For controls, a sample of CER-001 without added azithromycin and a sample of azithromycin at a concentration of 10 mg/ml in phosphate buffered saline (PBS) were similarly subjected to five heating and cooling cycles from 37° C. to 55° C.
A solution of CER-001 was mixed with spironolactone to provide a final spironolactone concentration of 1.5 mg/ml and subjected to five heating and cooling cycles from 37° C. to 55° C. to promote complexation of spironolactone to CER-001. For controls, a sample of CER-001 without added spironolactone and a sample of spironolactone at a concentration of 1.5 mg/ml in phosphate buffered saline (PBS) were similarly subjected to five heating and cooling cycles from 37° C. to 55° C.
A solution of CER-001 was mixed with cyclosporine to provide a final cyclosporine concentration of 1 mg/ml and subjected to five heating and cooling cycles from 37° C. to 55° C. to promote complexation of cyclosporine to CER-001. […]

With dexamethasone palmitate, the “appearance of sample following the heating and cooling cycles” value was “contained a lipid film on the glass above the meniscus and was very cloudy”.

The record behind these values is US20240000948A1, “METHODS FOR TREATING EYE DISEASES USING LIPID BINDING PROTEIN-BASED COMPLEXES” (ABIONYX PHARMA SA, priority 2020, published 2024).
